Results on one molecule are retold here after patent US20240400691A1 (FBD BIOLOGICS, published 2024).

This test has as its target T1, human PD-L1 (human).
T1 construct: whole, on cells; For the PD-L1 tf DLD1 cells the species of PD-L1 is not restated; also called PD-L1 tf CHO-S; PD-L1 tf DLD1
In words: flow cytometry on PD-L1 tf CHO-S cells, fixed concentration of biotinylated PD1_G4 alone, streptavidin-PE. Background: In flow cytometry, cells or beads pass a laser one at a time.

B1: biotinylated PD1_G4 (Fc fusion)
chain: DSPDRPWNPPTFSPALLVVTEGDNATFTCSFSNTSESFVLNWYRMSPSNQTDKLAAFPEDRSQPGQDCRFRVTQLPNGRDFHMSVVRARRNDSGTYLCGAISLAPKAQIKESLRAELRVTERRAEVPTAHPSPSPRPAGQFQTLVESKYGPPCPPCPAPEFLGGPSVFLFPPKPKDTLMISRTPEVTCVVVDVSQEDPEVQFNWYVDGVEVHNAKTKPREEQFNSTYRVVSVLTVLHQDWLNGKEYKCKVSNKGLPSSIEKTISKAKGQPREPQVYTLPPSQEEMTKNQVSLTCLVKGFYPSDIAVEWESNGQPENNYKTTPPVLDSDGSFFLYSRLTVDKSRWQEGNVFSCSVMHEALHNHYTQKSLSLSLGK
modifications: biotinylated (sites not given)
notes: also called Biotin PD1 Fc
Regarding B1, the binding result is “binds”.
